The values that follow come from PMC11602988 (The Journal of Biological Chemistry, 2024).

Where a chain is given by its changes, count along the chain named. Where two headings read alike, the source gives them in different places.

In one assay the target is T1, OCT1 Phe244Ala variant (Homo sapiens, UniProt O15245, F244A).
T1 sequence (O15245 1-554 F244A): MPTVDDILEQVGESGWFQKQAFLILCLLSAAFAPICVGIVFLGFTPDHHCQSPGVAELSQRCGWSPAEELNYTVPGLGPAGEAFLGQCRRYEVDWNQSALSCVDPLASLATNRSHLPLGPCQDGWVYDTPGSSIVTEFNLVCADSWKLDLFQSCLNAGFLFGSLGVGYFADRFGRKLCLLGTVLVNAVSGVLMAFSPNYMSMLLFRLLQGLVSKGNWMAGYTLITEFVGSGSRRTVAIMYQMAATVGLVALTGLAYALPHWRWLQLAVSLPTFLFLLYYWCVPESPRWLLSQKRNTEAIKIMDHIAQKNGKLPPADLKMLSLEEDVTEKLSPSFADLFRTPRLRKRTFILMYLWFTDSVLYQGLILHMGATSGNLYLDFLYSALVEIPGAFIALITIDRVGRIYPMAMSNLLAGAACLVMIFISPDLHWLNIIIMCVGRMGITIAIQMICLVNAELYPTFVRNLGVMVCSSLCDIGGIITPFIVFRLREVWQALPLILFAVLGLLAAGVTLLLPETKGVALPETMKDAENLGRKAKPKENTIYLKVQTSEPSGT
In words: Uptake screening (transport ratio over empty vector), HEK293 cells overexpressing OCT1 Phe244Ala variant.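 Note: stably transfected HEK293 cells, intracellular substrate quantified by HPLC-tandem mass spectrometry in cell lysates, uptake in HBSS+ buffer.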 It is filed as cell-based. On the set-up: expressed in transfected cells.

The target in the next assay is T2, OCT1 WT (Homo sapiens, UniProt O15245).
T2 sequence (O15245 1-554): T1 sequence (O15245 1-554 F244A) with A244F
In words: Uptake screening (transport ratio over empty vector), HEK293 cells overexpressing OCT1 WT.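 Note: intracellular substrate levels quantified by HPLC–tandem mass spectrometry after uptake in HBSS+ buffer at 37 °C, stable Flp-In HEK293 lines, fold change versus empty vector–transfected cells.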 It is filed as cell-based. Further details: expressed in transfected cells.

The mark [1] stands for this setting: uptake ratio of OCT1 Phe244Ala-overexpressing HEK293 cells over empty vector.
[2] abbreviates: uptake ratio of OCT1 WT-overexpressing HEK293 cells over empty vector.
The mark [3] stands for this setting: Phe244Ala uptake relative to OCT1 WT.

As for `CNCCc1ccc(O)c(O)c1` [Deoxyepinephrine], the Mean_transport_ratio_Phe244Ala on OCT1 Phe244Ala variant (uptake ratio over empty vector, HEK293 cells overexpressing OCT1 Phe244Ala) is recorded as 1.257.

`C[N+]1(C)[C@@H]2CC(OC(=O)[C@H](CO)c3ccccc3)C[C@H]1[C@@H]1O[C@@H]12` (stereo partly shown) [Mehylscopolamine]: the Mean_transport_ratio_WT at OCT1 WT came out at 26.616. Also, the relative_Phe244Ala_uptake_in% on OCT1 Phe244Ala variant is listed as 120.735%. Further, the Mean_transport_ratio_Phe244Ala at OCT1 Phe244Ala variant (setting [1]) amounted to 31.927.

Take `CN(C)c1ccc2nc3ccc(=[N+](C)C)cc-3sc2c1` [Methylene blue]: the Mean_transport_ratio_WT on OCT1 WT (setting [2]) is reported as 2.628. At OCT1 Phe244Ala variant (setting [3]), the relative_Phe244Ala_uptake_in% is on record as 39.158%. Further, the Mean_transport_ratio_Phe244Ala at OCT1 Phe244Ala variant (setting [1]) came to 1.637.

Consider `CCN1CCCC1CNC(=O)c1cc(S(N)(=O)=O)ccc1OC` (stereo not shown) [Sulpiride], for which the Mean_transport_ratio_WT on OCT1 WT (uptake ratio over empty vector, HEK293 cells overexpressing OCT1 WT) was 8.095. Also, the Mean_transport_ratio_Phe244Ala at OCT1 Phe244Ala variant worked out at 12.736. In addition, the relative_Phe244Ala_uptake_in% on OCT1 Phe244Ala variant (setting [3]) stood at 165.426%.

Minoxidil: the Mean_transport_ratio_WT at OCT1 WT (setting [2]) was 1.261. For the same compound, at OCT1 Phe244Ala variant (setting [3]), the relative_Phe244Ala_uptake_in% was -22.518%. For the same compound, the Mean_transport_ratio_Phe244Ala on OCT1 Phe244Ala variant (setting [1]) was 0.941.
